Test [1] is filed under the species Homo sapiens. As to the kind of experiment: Selectivity ratio of IC50 for CatG (unknown origin) to Ki for human neutrophil elastase.
For test [2], the species on record is Homo sapiens. In words: Selectivity ratio of IC50 for chymotrypsin (unknown origin) to Ki for human neutrophil elastase.
The species entered for test [3] is Homo sapiens. As to the kind of experiment: Selectivity ratio of IC50 for trypsin (unknown origin) to Ki for human neutrophil elastase.
A short description of test [4]: Selectivity ratio of Ki for rat neutrophil elastase to Ki for human neutrophil elastase.
Test [5] in a line: Selectivity ratio of Ki for mouse neutrophil elastase to Ki for human neutrophil elastase.
Test [6] can be described thus: Selectivity ratio of IC50 for porcine pancreatic elastase to Ki for human neutrophil elastase.

Among the data in ChEMBL document CHEMBL3616465, “Neutrophil elastase inhibitors for the treatment of (cardio)pulmonary diseases: Into clinical testing with pre-adaptive pharmacophores” (Bioorg Med Chem Lett, 2015) are Selectivity ratio and Ratio Ki values, retold here.

For `CC1=C(C#N)[C@@H](c2ccc(C#N)cc2S(C)(=O)=O)N(C)C(=O)N1c1cccc(C(F)(F)F)c1`, the Selectivity ratio in test [1], in test [2], in test [3] and in test [6] was over 375000 in each case. The values for the Ratio Ki in test [4] and in test [5] were 100 and 75, respectively.
